Measurements taken from ChEMBL document CHEMBL5247605, “Discovery of potent indazole-based human glutaminyl cyclase (QC) inhibitors as Anti-Alzheimer's disease agents” (Eur J Med Chem, 2022).

Sequences of proteins named here, by UniProt entry; tags and fusion partners are left off.
UniProt Q12809, whole entry: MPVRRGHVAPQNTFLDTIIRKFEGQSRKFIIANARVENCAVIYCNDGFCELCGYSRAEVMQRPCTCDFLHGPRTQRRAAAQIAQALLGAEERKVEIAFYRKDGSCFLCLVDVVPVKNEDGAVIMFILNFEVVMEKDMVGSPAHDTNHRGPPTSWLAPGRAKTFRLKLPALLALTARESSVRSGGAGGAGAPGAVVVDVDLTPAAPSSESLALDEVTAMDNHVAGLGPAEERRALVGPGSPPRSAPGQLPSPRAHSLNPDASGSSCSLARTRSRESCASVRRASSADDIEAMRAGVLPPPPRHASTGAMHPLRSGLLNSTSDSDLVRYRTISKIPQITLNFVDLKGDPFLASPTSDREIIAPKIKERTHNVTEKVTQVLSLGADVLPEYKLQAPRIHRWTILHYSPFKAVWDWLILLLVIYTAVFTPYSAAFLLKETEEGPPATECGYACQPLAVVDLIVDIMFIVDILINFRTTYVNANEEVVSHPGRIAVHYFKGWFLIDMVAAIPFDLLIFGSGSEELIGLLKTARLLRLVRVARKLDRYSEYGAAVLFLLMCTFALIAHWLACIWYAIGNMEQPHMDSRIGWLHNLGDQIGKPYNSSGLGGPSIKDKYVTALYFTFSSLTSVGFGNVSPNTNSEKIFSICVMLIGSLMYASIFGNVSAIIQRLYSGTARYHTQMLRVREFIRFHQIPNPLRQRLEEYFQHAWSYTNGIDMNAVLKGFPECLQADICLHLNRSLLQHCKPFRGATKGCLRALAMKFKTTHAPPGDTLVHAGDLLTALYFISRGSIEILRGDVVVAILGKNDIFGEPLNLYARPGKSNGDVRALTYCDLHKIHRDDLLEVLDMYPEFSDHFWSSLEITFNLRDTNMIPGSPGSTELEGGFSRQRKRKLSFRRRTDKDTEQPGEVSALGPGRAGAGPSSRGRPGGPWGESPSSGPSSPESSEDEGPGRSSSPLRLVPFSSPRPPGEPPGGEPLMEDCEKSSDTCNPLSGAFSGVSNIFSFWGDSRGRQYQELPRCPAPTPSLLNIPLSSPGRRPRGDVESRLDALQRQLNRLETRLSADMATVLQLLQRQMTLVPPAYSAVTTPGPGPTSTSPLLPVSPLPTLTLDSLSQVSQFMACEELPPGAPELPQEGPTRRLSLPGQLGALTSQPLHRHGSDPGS

Columns and labels:
HT-22 = test: Cytotoxicity against mouse HT-22 cells assessed as cell viability at 10 uM incubated for 18 hrs by MTT assay relative to control; conditions: ht-22, 18 h
[1] = biological target: Voltage-gated inwardly rectifying potassium channel KCNH2 (Homo sapiens, UniProt Q12809); test: Inhibition of hERG at 10 uM by fluorescence polarization assay relative to control

With `Cc1nn(C)c2cc(N(C(=O)NCCCn3cncc3C)C3CCN(C)CC3)ccc12` the Activity (HT-22) was 115% and the inhibition (INH) [1] was 19.2%.

Some compounds may have been tested in ways that are not shown here.
